Earlier results as cited in article PMC8800111 (The Journal of Biological Chemistry, 2021).

Conditions: clinical trials for antimicrobial and anticancer effects; cited from earlier work

Compound: CCc1nc(N)nc(N)c1-c1ccc(Cl)cc1 [pyrimethamine]
- toxicity at therapeutic levels: essentially no toxicity
